In this assay the test system is LRI. The conditions noted are these: control PMN.

Several values for one entry are separate records, joined by “and”; a condition that tells them apart may be missing. Identical values can stand only once.

Take “HSA: pyrogen-free human serum albumin, coated on latex beads as control”: the “attachment index (AI) of coated beads, beads bound by 100 PMN” value is 5 and 6.

The values are drawn from patent publication US5225531A, “Hexapeptide Lys Gly Ala Gly Asp Val” (Washington University, priority 1992, dated 1993).
